Values quoted from earlier work in publication PMC8509707.
Where two headings read alike, the source gives them in different places.

What was measured:
[1] = biological target: PIRT (Homo sapiens) (UniProt P0C851); conditions: cited from earlier work
[2] = biological target: PIRT (Homo sapiens) (UniProt P0C851); conditions: cited from earlier work; remark: listed apart in the source

Calmodulin (from UniProt P0DP23)
Kd [1]: 60 µM
Kd [2]: 0.35 µM
